Reference: patent US20240026032A1 (Alexion, published 2024)

Biological target: the molecule itself
Assay: BLI (Octet), PD-1 Fc captured on anti-human Fc tips, PD-1 Fc as analyte
Experimental: Final dissociation in PBS was performed in the last step on the Bio-Layer Interferometry (BLI) data.

B1: Programmed Death 1 (PD-1) Fc chimera (R&D Systems, Catalog # 1086-PD-050) (Fc fusion, human, UniProt Q15116 25-167, looked up)
chain: LDSPDRPWNPPTFSPALLVVTEGDNATFTCSFSNTSESFVLNWYRMSPSNQTDKLAAFPEDRSQPGQDCRFRVTQLPNGRDFHMSVVRARRNDSGTYLCGAISLAPKAQIKESLRAELRVTERRAEVPTAHPSPSPRPAGQFQ
notes: Bought reagent; not shown: Fc part of the bought chimera (captured by anti-human Fc tips)
- binding result: no binding
